Results from patent US12507703B2, “Methods, devices and compositions for preserving human milk” (The Trustees of Princeton University, priority 2023, dated 2025).

system: lipase; assay: Lipase/lipolysis assay (EnzChek Lipase Substrate, quenched BODIPY-fatty acid conjugate) on stored human milk; conditions: Biolog PM1 compound added to fresh human milk, stored 1 week at −20° C.; RFU <400 = hit; for Lipase (RFU): test concentration or dose not given here

Compound	Lipase (RFU)
O=c1ccn([C@@H]2O[C@H](CO)[C@@H](O)[C@H]2O)c(=O)[nH]1 [Uridine]	818.9178 RFU
O=C(O)CC(Br)C(=O)O (stereo not drawn) [Bromo Succinic Acid]	1206.804 RFU

same assay, conditions: Biolog PM2a compound added to fresh human milk, stored 1 week at −20° C.; RFU <400 = hit

Compound	Lipase (RFU)
C=C(CC(=O)O)C(=O)O [Itaconic Acid]	177.3666 RFU

same assay, conditions: Biolog PM4 compound added to fresh human milk, stored 1 week at −20° C.; RFU <400 = hit

Compound	Lipase (RFU)
CCCCS(=O)(=O)O [Butane Sulfonic Acid]	1201.684 RFU
Nc1ccc(S(=O)(=O)O)cc1 [p-Amino Benzene Sulfonic Acid]	861.3127 RFU

same assay, conditions: Biolog PM5 compound added to fresh human milk, stored 1 week at −20° C.; RFU <400 = hit

Compound	Lipase (RFU)
O=c1ccn([C@@H]2O[C@H](CO)[C@@H](O)[C@H]2O)c(=O)[nH]1 [Uridine]	858.0629 RFU
O=c1cc[nH]c(=O)[nH]1 [Uracil]	876.7354 RFU
Cc1ncc(CO)c(CO)c1O [Pyridoxine]	1071.75 RFU

same assay, conditions: Food Additive Library compound added to fresh human milk, stored 1 week at −20° C., thawed at room temperature; RFU of <400 considered a hit

Compound	Lipase (RFU)
C[C@@H]1O[C@@H](O[C@H]2[C@H](Oc3cc(O)c(C(=O)CCc4ccc(O)cc4)c(O)c3)O[C@H](CO)[C@@H](O)[C@@H]2O)[C@H](O)[C@H](O)[C@H]1O [Naringin Dihydrochalcone]	688.775 RFU
CCCCCC(C)O (stereo not drawn) [Compound 2-Heptanol, 2-Heptanol]	1139.117 RFU
Cc1ccc(C=O)o1 [Compound 5-Methylfurfural, 5-Methylfurfural]	1073.657 RFU
CC/C=C\CCO [cis-3-Hexen-1-ol]	854.7889 RFU
CC(=O)c1ccc(C)cc1 [4′-Methylacetophenone]	1064.978 RFU
CCCCCCCCCCCCO [Compound 1-Dodecanol, 1-Dodecanol]	944.8837 RFU
CCCCCCCCCCCCCCCCO [Compound 1-Hexadecanol, 1-Hexadecanol]	1083.165 RFU
COC(=O)CCc1ccccc1 [Methyl 3-phenylpropanoate]	889.7516 RFU
COc1ccc(C=CC=O)cc1 [4-Methoxycinnamaldehyde]	845.4305 RFU
O=C(O)c1ccc(O)cc1O [2,4-Dihydroxybenzoic acid]	1064.046 RFU
CCOC(=O)CCC(=O)OCC [Diethyl succinate]	730.8022 RFU
CSSSC [Dimethyl trisulfide]	894.0785 RFU
CCCCCCCCCCCCCC(=O)O [Myristic acid]	851.218 RFU
CC1CCCCC1=O (stereo not drawn) [Compound 2-Methylcyclohexanone, 2-Methylcyclohexanone]	810.41 RFU
Cc1ncc(CO)c(CO)c1O [Pyridoxine]	1095.782 RFU

same assay, conditions: Food-Sourced Compound Library compound added to fresh human milk, stored 1 week at −20° C., thawed at room temperature; RFU <400 considered a hit

Compound	Lipase (RFU)
CC(C)C(O)C(=O)O (stereo not drawn) [2-Hydroxy-3-methylbutanoic acid]	798.7467 RFU
OC[C@H]1O[C@@H](n2cnc3c(O)ncnc32)C[C@@H]1O [2′-Deoxyinosine]	1081.215 RFU
CC/C=C\CCO [cis-3-Hexen-1-ol]	1097.087 RFU
O=C(O)/C=C\C(=O)O [Maleic Acid]	614.1141 RFU
C[C@H](NC(=O)CC[C@H](N)C(=O)O)C(=O)O [γ-L-Glutamyl-L-alanine]	985.9057 RFU
C[C@H](CCC(=O)O)[C@H]1CC[C@H]2[C@@H]3[C@H](O)C[C@@H]4C[C@H](O)CC[C@]4(C)[C@H]3CC[C@]12C [Chenodeoxycholic Acid]	1038.598 RFU
NC(CCS)C(=O)O (racemic) [DL-Homocysteine]	816.4846 RFU
CCCCCCCC/C=C\CCCCCCCC(=O)NCCO [Oleoylethanolamide]	1064.732 RFU
CCC(C)(O)C(=O)O (stereo not drawn) [2-Hydroxy-2-methylbutanoic acid]	1032.358 RFU
CCCCCCCC/C=C\CCCCCCCC(N)=O [Oleamide]	1128.919 RFU
Nc1c(O)cccc1C(=O)O [3-Hydroxyanthranilic acid]	696.0713 RFU
O=C(O)/C=C/C=C/C(=O)O [trans-trans-Muconic acid]	1096.606 RFU
CC(=O)NC(CCC(N)=O)C(=O)O (stereo not drawn) [Aceglutamide]	1263.47 RFU
CCCCCCCCCCCCCCCCCCCCCCC(=O)O [Tricosanoic acid]	1039.233 RFU

same assay, conditions: approximately 2700 compound screen, human milk stored 1 week at −20° C.; hit = RFU <400

Compound	Hit in lipase inhibition screen (in words)
C=C(CC(=O)O)C(=O)O [Itaconic Acid]	significantly inhibited lipase activity

same assay, conditions: compound added to fresh human milk, stored 1 week at −20° C., thawed at room temperature; RFU <400 considered a hit

Compound	Lipase (RFU)
CCC(C(=O)O)c1ccccc1 (stereo not drawn) [2-Phenylbutanoic acid]	918.4902 RFU
CCCCC/C=C\C/C=C\CCCCCCCC(=O)OCC [Ethyl linoleate]	1142.329 RFU
CCCC(N)C(=O)O (racemic) [DL-Norvaline]	939.3139 RFU
C/C=C/c1ccc(OC)cc1 [Anethole]	829.3991 RFU
COc1ccc2[nH]cc(CC(=O)O)c2c1 [5-Methoxyindole-3-acetic acid]	1104.988 RFU
O=c1ccn([C@@H]2O[C@H](CO)[C@@H](O)[C@H]2O)c(=O)[nH]1 [Uridine]	908.1209 RFU
CC(O)(CC(=O)O)CC(=O)O [Meglutol]	965.3573 RFU
COc1ccc(-c2cc(=O)c3c(OC)cc(OC)c(OC)c3o2)cc1OC [Isosinensetin]	1065.41 RFU
c1ccc2c(c1)Cc1ccccc1-2 [Fluorene]	1185.437 RFU
NC(C(=O)O)C(=O)O [Aminomalonic acid]	801.3808 RFU
COc1cc(O[C@@H]2O[C@H](CO[C@@H]3O[C@H](CO)[C@@H](O)[C@H](O)[C@H]3O)[C@@H](O)[C@H](O)[C@H]2O)c2c(O)c3c(=O)cc(C)oc3cc2c1 [Rubrofusarin gentiobioside]	1035.17 RFU
C[C@]12CCC(=O)C=C1C=C[C@@H]1[C@@H]2CC[C@@]2(C)[C@H]1CC[C@@]21CCC(=O)O1 [Canrenone]	1049.986 RFU
O=C(O)CCCCCCC(=O)O [Suberic acid]	904.1508 RFU
C/C=C(\CC[C@@H](C)[C@H]1CC[C@H]2[C@@H]3CC=C4C[C@@H](O)CC[C@]4(C)[C@H]3CC[C@]12C)C(C)C [Fucosterol]	973.5706 RFU
CC(=O)N[C@@H](CCCCN)C(=O)O [Acetyl-L-lysine]	820.531 RFU
CC1(C)OC(=O)C=C[C@]2(C)[C@H]3CC[C@@]4(C)[C@H](c5ccoc5)OC(=O)[C@H]5O[C@]54[C@]3(C)C(=O)C[C@@H]12 [Obacunone]	1116.692 RFU
CCCCCCCCCCCCCCCO [Compound 1-Pentadecanol, 1-Pentadecanol]	991.3473 RFU
COc1cc(C[C@H]2COC(=O)[C@@H]2Cc2ccc(O)c(OC)c2)ccc1O [Matairesinol]	851.161 RFU
CC(C)(COP(=O)(O)OP(=O)(O)OC[C@H]1O[C@@H](n2cnc3c(N)ncnc32)[C@H](O)[C@@H]1OP(=O)(O)O)[C@@H](O)C(=O)NCCC(=O)NCCS [Coenzyme A]	1090.874 RFU
O=c1c(O)c(-c2ccc(O)cc2)oc2cc(O)cc(O)c12 [Kaempferol]	845.5437 RFU
O=C(O)c1cc(C(=O)O)c2c(n1)C(=O)C(=O)c1cc(C(=O)O)[nH]c1-2 [Pyrroloquinoline quinone]	875.608 RFU
CC(=O)OCC1=C[C@@H]2OC(=O)C3=CO[C@@H](O[C@@H]4O[C@H](CO)[C@@H](O)[C@H](O)[C@H]4O)[C@H]1[C@@H]32 [Asperuloside]	1045.558 RFU
COc1c2ccoc2c(OC[C@H]2OC2(C)C)c2oc(=O)ccc12 [Byakangelicol]	925.1398 RFU
O=C(O)CCCCCCCCCCCC(=O)O [Tridecanedioic acid]	1127.183 RFU
C[C@@H]1O[C@@H](c2c(O)c([C@@H]3O[C@H](CO)[C@@H](O)[C@H](O)[C@H]3O)c(O)c3c(=O)cc(-c4ccc(O)cc4)oc23)[C@H](O)[C@H](O)[C@H]1O [Violanthin]	684.1202 RFU
